From PubChem BioAssay AID588391 (Broad Institute, 2011)
Only a part is listed here, and it is no random draw. The source made the active and inactive calls.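 How the source made its calls: active means mean inhibition across replicates of 30% or more, whatever share of single replicates reach that level; inconclusive means mean inhibition below 30% while every single replicate reaches 30%; inactive means the rest.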

Sequences of proteins named here, by UniProt entry; tags and fusion partners are left off. A change or cut given only in a name is not applied to a line headed by its entry.
UniProt P07237: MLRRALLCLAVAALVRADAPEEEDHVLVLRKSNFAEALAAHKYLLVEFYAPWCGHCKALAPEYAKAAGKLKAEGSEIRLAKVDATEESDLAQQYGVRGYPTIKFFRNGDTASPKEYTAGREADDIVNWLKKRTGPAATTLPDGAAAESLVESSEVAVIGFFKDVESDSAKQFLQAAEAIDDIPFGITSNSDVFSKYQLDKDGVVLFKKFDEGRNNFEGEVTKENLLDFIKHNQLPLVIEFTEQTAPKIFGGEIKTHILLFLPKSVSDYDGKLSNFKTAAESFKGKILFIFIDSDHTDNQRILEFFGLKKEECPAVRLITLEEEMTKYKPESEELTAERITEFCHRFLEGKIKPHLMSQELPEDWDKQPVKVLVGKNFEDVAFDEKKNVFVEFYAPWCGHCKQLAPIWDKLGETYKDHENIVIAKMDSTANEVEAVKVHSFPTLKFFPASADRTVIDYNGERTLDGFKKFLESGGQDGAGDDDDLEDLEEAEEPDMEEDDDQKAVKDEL

These molecules were tested against Protein disulfide-isomerase (Homo sapiens) (UniProt P07237) (assay: inhibitors of human PDI, primary screen, biochemical, turbidity, single point, plate reader (AID 588391;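 further: absorbance from insulin aggregation driven by PDI reduction with DTT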)). Conditions: PDI insulin aggregation turbidity, A650, 90 min; at 10 µM; active compounds read high.

SMILES	inhibition
COC(=O)C1(C)COP(=O)(N2CCCCCC2)OC1 (stereo unspecified)	inactive: 1.12%
CCN(CC)C(=S)SC(NC=O)C(Cl)(Cl)Cl (stereo unspecified)	inactive: 1.37%
O=C(OC1CN2CCC1CC2)c1cccc2[nH]cnc12 (stereo unspecified)	inactive: 0.127%
CC(C)NC(=O)NP(=O)(Oc1ccccc1)Oc1ccccc1	inactive: 3.93%
O=[N+]([O-])c1cc([N+](=O)[O-])c(-c2ccn[nH]2)s1	inactive: 1.12%
O=C(O)C(O)c1ccc(N(CCCl)CCCl)cc1 (stereo unspecified)	inactive: 4.69%
CCOC(=O)Nc1ccc([As](=O)(O)O)c(O)c1	inactive: 3.03%
CC1CCNP(=O)(N(CCCl)CCCl)O1 (stereo unspecified)	inactive: 4.34%
COP(=O)(OC)N1CC1c1ccccc1 (stereo unspecified)	inactive: -2.08%
CCCCOc1ccc(C(=O)NCC2(N3CCCCC3)CCCCC2)cc1OC	inactive: -10.9%
Cc1cc(SC(NC(=O)c2ccccc2)C(Cl)(Cl)Cl)nc(C(C)C)n1 (stereo unspecified)	inactive: -6.78%
CCOC(=O)Nc1cccc([As](=O)(O)O)c1	inactive: -5.55%
Cc1cc(SC(NC=O)C(Cl)(Cl)Cl)ncn1 (stereo unspecified)	inactive: -3.73%
O=P(Nc1ccccn1)(c1cccc2ccccc12)c1cccc2ccccc12	inactive: 1.82%
O=[N+]([O-])c1ccc(Nc2ccc(Oc3ccc([N+](=O)[O-])cc3[N+](=O)[O-])cc2)c([N+](=O)[O-])c1	inactive: 0.088%
COP1(=S)c2c(C)nn(CCC#N)c2N=C(c2ccc(F)cc2)N1C (stereo unspecified)	inactive: 2.94%
O=C(O)C(=O)c1ccc(N(CCCl)CCCl)cc1	inactive: 0.329%
O=C(COc1ccccc1)OC1CN2CCC1CC2 (stereo unspecified)	inactive: 6.07%
O=C(Nc1ccncc1[N+](=O)[O-])c1ccc([N+](=O)[O-])cc1[N+](=O)[O-]	inactive: -8.05%
O=C(OC1CN2CCC1CC2)c1cccc([N+](=O)[O-])c1 (stereo unspecified)	inactive: 9.03%
CSc1ccc(Nc2c([N+](=O)[O-])cc([N+](=O)[O-])cc2[N+](=O)[O-])cc1	inactive: -0.555%
CCOC(=O)c1ccc(NC(=O)C(C)(CCl)SC)cc1 (stereo unspecified)	inactive: -5.57%
CCC(C)N(CC(C)C)C(=S)SC(NC(C)=O)C(Cl)(Cl)Cl (stereo unspecified)	inactive: -5.32%
CCC1=CC2Cc3nc4ccc(Cl)cc4c(N)c3C(C1)C2 (stereo unspecified)	inactive: -10.4%

SMILES	inhibition
O=P1(Nc2ccccn2)COc2ccccc2OC1	inactive: 13.4%
CCOP(=O)(NC(=NC(C)c1ccccc1)NC(C)c1ccccc1)OCC (stereo unspecified)	inactive: 8.12%
CN(CCCl)Cc1cc(Cl)c(NC2=NCCN2)c(Cl)c1	inactive: -0.561%
CCOP(=O)(Nc1ccc(C)cn1)OCC	inactive: 9.04%
Clc1n[nH]nc1-c1nn[nH][15n]1	inactive: 2.57%
O=P1(N(CCCl)CCCl)NCCC(C(F)(F)F)O1 (stereo unspecified)	inactive: -4.9%
CC(C)(C)C(=O)NC(Sc1ncccn1)C(Cl)(Cl)Cl (stereo unspecified)	inactive: -3.06%
COc1ccccc1CNC(=O)COC(=O)C(O)(c1ccccc1)c1ccccc1	inactive: -7.68%
CN(C(=O)Cc1ccc(Cl)c(Cl)c1)[C@@H]1CCCC[C@H]1N1CCCC1	inactive: -3.87%
CC(C)/C=N\N=C(\N)N[N+](=O)[O-]	inactive: -0.638%
CC1(CBr)Cn2c(nc3ccccc3c2=O)S1 (stereo unspecified)	inactive: 1.86%
Cc1nn(-c2ccccc2)c2c1P(=O)(N1CCOCC1)N(C)C(c1ccccc1)=N2 (stereo unspecified)	inactive: 6.47%
Cc1ccc(C(=O)OC2CN3CCC2CC3)cc1 (stereo unspecified)	inactive: 6.81%
CC1CCC(C(C)C)C(OP(=O)(Nc2ccccn2)c2ccccc2)C1 (stereo unspecified)	inactive: -4.3%
CN(C)C1(CNC(=O)c2ccc(S(C)(=O)=O)cc2)CCCCC1	inactive: -3.93%
O=C(/C=C/c1ccccc1)OC1CN2CCC1CC2 (stereo unspecified)	inactive: -0.546%
CCCC1OP(=O)(Nc2ccccc2)OCC1CC (stereo unspecified)	inactive: -0.033%
O=P1(Nc2ncccn2)COc2ccccc2OC1	inactive: -8.36%
Nc1cccc([As](=O)(O)c2ccccc2)c1	inactive: -0.659%
NS(=O)(=O)c1cccc(NC(=O)COC(=O)C(O)(c2ccccc2)c2ccccc2)c1	inactive: -6.52%
O=P1(Nc2ccc(Br)cn2)COc2ccccc2OC1	inactive: 5.49%
Cc1ccc(OCC(=O)OC2CN3CCC2CC3)cc1 (stereo unspecified)	inactive: 2.94%
O=[As](O)(c1cccs1)c1cccs1	inactive: 3.31%
CCOP1(=S)c2c(C)nn(CCC#N)c2N=C(c2ccccc2F)N1C (stereo unspecified)	inactive: -3.22%

SMILES	inhibition
O=P(Nc1nccs1)(c1ccccc1)c1nc2ccccc2s1 (stereo unspecified)	inactive: 0.909%
O=P(Nc1nccs1)(Oc1ccccc1)Oc1ccccc1	inactive: -1.9%
CS(=O)(=O)c1cc([N+](=O)[O-])c2no[n+]([O-])c2c1	inactive: -2.66%
O=C(O)COc1ccc([As](=O)(O)O)cc1[N+](=O)[O-]	inactive: -5.63%
Nc1ccccc1[As](=O)(O)c1ccccc1	inactive: -0.165%
NC(=O)Nc1ccc([As](=O)(O)O)cc1	inactive: 0.713%
N#CCCN(C(=O)COC(=O)C(O)(c1ccccc1)c1ccccc1)c1ccc(F)cc1	inactive: -2.81%
CCOP1(=S)c2c(C)nn(CCC#N)c2N=C(c2ccc(F)cc2)N1C (stereo unspecified)	inactive: 2.01%
CN(C(=O)Cc1ccccc1)[C@@H]1CC[C@]2(CCCO2)C[C@H]1N1CCCC1	inactive: -5.03%
CN(C)C(=O)c1cc([N+](=O)[O-])cc2c1-c1c(cc([N+](=O)[O-])cc1[N+](=O)[O-])C2=O	inactive: -11.7%
O=[N+]([O-])c1ccc2c(c1)nnn2O	inactive: 0.966%
CN(C(=O)Cc1ccc(Cl)c(Cl)c1)[C@H]1CC[C@@]2(CCCO2)C[C@@H]1N1CCCC1	inactive: 2.43%
O=C(OC1CN2CCC1CC2)c1ccc(Cl)cc1 (stereo unspecified)	inactive: -13.4%
COc1cc(C(=O)NCC2(N3CCOCC3)CCCCC2)cc(Cl)c1OC(C)C	inactive: 3.11%
O=[As](O)(O)c1cccnc1	inactive: -5.22%
CS(=O)(=O)c1ccc(Cl)c(NC(=O)COC(=O)C(O)(c2ccccc2)c2ccccc2)c1	inactive: -0.032%
O=[As](O)(c1cccc(O)c1)c1cccc(O)c1	inactive: -7.95%
Cc1cccc(OCC(=O)OC2CN3CCC2CC3)c1 (stereo unspecified)	inactive: 7.97%
Cc1ccc(NCCc2c([N+](=O)[O-])cc([N+](=O)[O-])cc2[N+](=O)[O-])cc1	inactive: -0.872%
Nc1cccc2c([As](=O)(O)O)cccc12	inactive: -1.35%
CCCOP(=S)(Nc1nc(N)cc(=O)[nH]1)OCCC	inactive: -6.4%
COc1cc(C2NCCC3(OCCO3)C2(C)C)cc(OC)c1OC (stereo unspecified)	inactive: -1.86%
CCOP(=O)(Nc1cccc2ccccc12)OCC	inactive: -6.19%
